Literature values as cited in patent US20100166701A1, “METHOD FOR TREATING RENAL CELL CARCINOMA USING GLYCOGENOLYSIS INHIBITORS” (priority 2008, published 2010).

System: metastatic RCC
Settings: cited from earlier work

IL-2: interleukin-2, current standard of care in human RCC
toxic side-effects (in vivo): vascular leak syndrome with peripheral edema, weight gain, ascites, and/or plural effusions and pulmonary edema | average response rate (metastatic RCC, high doses): 14 to 20% | increased survival rate over five years (metastatic RCC): ~3%
